Measurements: paper PMC9555309, “Improvement of native structure-based peptides as efficient inhibitors of protein-protein interactions of SARS-CoV-2 spike protein and human ACE2” (Frontiers in Molecular Biosciences, 2022)

Target: RBD domain of the SARS-CoV-2 S protein (Severe acute respiratory syndrome coronavirus 2, UniProt P0DTC2)
Assay: biochemical
Assay type: binding

NC(=O)C[C@H](NC(=O)CNC(=O)[C@H](Cc1ccc(O)cc1)NC(=O)[C@@H](N)CC(=O)O)C(=O)N[C@@H](Cc1c[nH]cn1)C(=O)N[C@@H](CCC(=O)O)C(=O)O [J3, DYGNHE] showed a Kd (KD Tmeasur. 22°C) of 42 ± 8 nM.
For CSCC[C@H](N)C(=O)N[C@@H](Cc1ccc(O)cc1)C(=O)NCC(=O)N[C@@H](CC(N)=O)C(=O)N[C@@H](Cc1c[nH]cn1)C(=O)N[C@@H](CCC(=O)O)C(=O)O [J3.2, MYGNHE], the Kd (KD Tmeasur. 22°C) was 83 ± 20 nM and the Kd (KD Tmeasur. 25°C) was 98 ± 24 nM.
In the case of CC(C)C[C@H](N)C(=O)N[C@@H](Cc1ccc(O)cc1)C(=O)NCC(=O)N[C@@H](CC(N)=O)C(=O)N[C@@H](Cc1c[nH]cn1)C(=O)N[C@@H](CCC(=O)O)C(=O)O [J3.3, LYGNHE], the Kd (KD Tmeasur. 22°C) is reported as 162 ± 23 nM and the Kd (KD Tmeasur. 25°C) is reported as 190 ± 26 nM.
NC(=O)C[C@H](NC(=O)CNC(=O)[C@H](Cc1ccc(O)cc1)NC(=O)[C@@H](N)CC(=O)O)C(=O)N[C@@H](Cc1ccc(O)cc1)C(=O)N[C@@H](CCC(=O)O)C(=O)O [J3.1, DYGNYE] gave a Kd (KD Tmeasur. 22°C) of 121 ± 37 nM and a Kd (KD Tmeasur. 25°C) of 142 ± 43 nM.
